Columns and labels:
[1] = target: EGFR (Homo sapiens (Human), UniProt P00533); assay: EGFR kinase test (33P-ATP filter binding); conditions: EGFR IC50 / BTK IC50 (first figure of the cell)
Method: (§1) Experimental Example 2: EGFR, ITK and TEC Kinase Test
(§2) buffer conditions: 20 mM HEPES (pH 7.5), 10 mM MgCl2, 1 mM EGTA, 0.02% Brij35, 0.02 mg/mL BSA, 0.1 mm Na3VO4, 2 mm DTT, 1% DMSO.
(§3) 2.1. Preparing an indicator substrate in a freshly prepared reaction buffer
(§4) 2.2. Delivering the desired cofactor to the above substrate solution
(§5) 2.3. Delivering the indicated kinase to the substrate solution and gently mixing same
(§6) 2.4. Delivering the compounds in DMSO to the kinase reaction mixture using acoustic technology (Echo550)
(§7) 2.5. Initiating the reaction (final concentration of ATP: 2 μM, 5 μM and 5 μM respectively) by delivering ^33P-ATP (final specific activity: 0.01 μci/μL) to the reaction mixture
(§8) 2.6. Incubating the kinase reaction at room temperature for 120 minutes
(§9) 2.7. Recording the reaction on P81 ion exchange paper (Whatman #3698-915)
(§10) 2.8. Washing the filter widely with 0.75% phosphoric acid
(§11) 2.9. Measuring the radioactive phosphorylated substrate remaining on the filter paper.
(§12) 3. Data analysis: the kinase activity data is expressed as the percentage of the remaining kinase activity in a test sample compared to a reaction with a carrier (dimethyl sulfoxide), and IC50 values and curve fitting are obtained using Prism4 software (GraphPad).

By UniProt entry, the sequences of proteins in these tests, tags left out.
UniProt Q08881, whole entry: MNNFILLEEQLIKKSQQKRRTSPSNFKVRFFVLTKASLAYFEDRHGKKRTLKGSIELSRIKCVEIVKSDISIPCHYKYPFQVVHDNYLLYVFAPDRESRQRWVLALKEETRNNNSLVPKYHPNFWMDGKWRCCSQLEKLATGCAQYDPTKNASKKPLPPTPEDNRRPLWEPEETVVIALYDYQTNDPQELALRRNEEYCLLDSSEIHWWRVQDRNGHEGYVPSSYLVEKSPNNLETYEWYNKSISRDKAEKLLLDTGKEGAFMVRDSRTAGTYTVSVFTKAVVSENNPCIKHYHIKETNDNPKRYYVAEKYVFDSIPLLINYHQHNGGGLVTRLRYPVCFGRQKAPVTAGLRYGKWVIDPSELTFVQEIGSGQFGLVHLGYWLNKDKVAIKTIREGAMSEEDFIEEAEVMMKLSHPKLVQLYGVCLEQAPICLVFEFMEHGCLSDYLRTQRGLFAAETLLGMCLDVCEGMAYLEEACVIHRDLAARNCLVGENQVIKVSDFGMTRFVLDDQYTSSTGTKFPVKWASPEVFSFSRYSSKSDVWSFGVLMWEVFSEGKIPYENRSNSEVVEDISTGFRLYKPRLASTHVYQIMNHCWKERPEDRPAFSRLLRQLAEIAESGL
UniProt P42680, whole entry: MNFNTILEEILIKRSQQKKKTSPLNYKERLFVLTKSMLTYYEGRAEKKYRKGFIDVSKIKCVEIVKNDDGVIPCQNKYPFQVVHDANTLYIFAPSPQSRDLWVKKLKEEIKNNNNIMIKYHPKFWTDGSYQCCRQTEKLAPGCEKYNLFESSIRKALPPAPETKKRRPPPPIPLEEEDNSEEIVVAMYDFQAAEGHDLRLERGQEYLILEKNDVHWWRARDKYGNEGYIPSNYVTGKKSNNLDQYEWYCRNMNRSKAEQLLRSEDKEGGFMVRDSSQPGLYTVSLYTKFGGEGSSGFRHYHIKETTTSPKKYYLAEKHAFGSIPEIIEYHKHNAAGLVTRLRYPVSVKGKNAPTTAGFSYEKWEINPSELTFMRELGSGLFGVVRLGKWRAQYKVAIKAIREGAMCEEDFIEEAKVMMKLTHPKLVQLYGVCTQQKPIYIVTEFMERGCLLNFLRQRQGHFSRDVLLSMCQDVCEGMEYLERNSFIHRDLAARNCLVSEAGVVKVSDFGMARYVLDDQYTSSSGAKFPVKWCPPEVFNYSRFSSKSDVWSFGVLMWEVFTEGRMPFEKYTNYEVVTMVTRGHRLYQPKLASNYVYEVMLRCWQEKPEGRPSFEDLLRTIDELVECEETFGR

[2] = target: ITK (Homo sapiens (Human), UniProt Q08881); assay: ITK kinase test (33P-ATP filter binding); conditions: ITK IC50 / BTK IC50 (second figure of the cell)
Method: as §1, §2, §3, §4, §5, §6, §7, §8, §9, §10, §11, §12

[3] = Pharmacokinetic study in male CD-1 mice, intravenous and intragastric administration; assay type: in vivo
Text: Experimental Example 3: Pharmacokinetic Study of the Compounds of the Present Disclosure
1. Summary of pharmacokinetic study of the compounds of the present disclosure
1.1 Male CD-1 mice are used as test animals; the LC/MS/MS method is used to determine drug concentrations in plasma of the mice at different time points after intravenous and intragastric administration of test compounds. The pharmacokinetic behaviors of the compounds in mice are studied and the pharmacokinetic characteristics thereof are evaluated.
2.1 Experimental drugs: test compounds.
2.2 Experimental animals: 4 healthy adult male CD-1 mice, which were divided into 2 groups according to the principle of similar body weight, with 2 mice in each group. The animals were purchased from Shanghai Xipuer-Bikai Experimental Animal Co., Ltd.
An appropriate amount of samples were weighed; a solvent was added, and the mixture was stirred under sonication until a clear state was achieved, and then used for intravenous administration.
An appropriate amount of samples were weighed; a solvent was added; and the mixture was stirred under sonication until an approximately clear solution appeared, and then used for intragastric administration.
4 male CD-1 mice were divided into 2 groups, and fasted overnight. One of the groups was administered intravenously, and the other group was administered intragastrically.
After the test compounds were administered intravenously to male CD-1 mice, 30 μL of blood was collected at 0.0830, 0.25, 0.5, 1, 2, 4, 8 and 24 hours, respectively, and placed in commercial tubes containing EDTA-K2. After the test compounds were administered intragastrically to the other mice, 30 μL of blood was collected at 0.25, 0.5, 1, 2, 4, 6, 8 and 24 hours, respectively, and placed in commercial tubes containing EDTA-K2. The test tubes were centrifuged at 3000 g for 15 minutes to separate the plasma and stored at −60° C. 2 hours after administration, the animals were allowed to eat.
After intravenous and intragastric administration, the content of the compounds to be tested in plasma of the mice was determined by the LC/MS/MS method. The linear range of the method was from 2.00 to 6000 nmol/L; plasma samples were analyzed after treatment of precipitating proteins with acetonitrile.

[4] = system: Human lymphoma TMD-8 cell subcutaneous xenograft; assay: Efficacy on human lymphoma TMD-8 cell subcutaneous xenograft models in CB-17 SCID mice; conditions: 50 mpk, once a day; TMD-8 xenograft in CB-17 SCID mice
Method: Experimental Example 4: Study on the Efficacy of the Compounds of the Present Disclosure on Human Lymphoma TMD-8 Cell Subcutaneous Xenograft Models in CB-17 SCID Mice
Experimental objective: the anti-tumor effects of the compounds were evaluated in this experiment by using TMD-8 cell subcutaneous xenograft models in CB-17 SCID mice.
Human lymphoma TMD-8 cells were cultured in a monolayer configuration in vitro, with culture conditions as follows: RMPJ-1640 medium supplemented with 10% fetal bovine serum, 100 U/mL penicillin and 100 μg/mL streptomycin, and 37° C., 5% CO2 incubator. Conventional digestion treatment with pancreatin-EDTA for passage was carried out twice a week. When the cell saturation was 80% to 90%, and the number reached the requirement, the cells were collected, counted and inoculated.
(2) Tumor Cell Inoculation
0.2 mL (1×10^7 cells) of TMD-8 cells (supplemented with matrigel in a volume ratio of 1:1) were subcutaneously inoculated on the right back of each mouse. The grouping and administration were started when the average tumor volume reached about 113 mm^3.
(3) Preparation of Test Samples
Compound group to be tested: a quantitative amount of the test compound was weighed in a brown dispensing bottle, and corresponding volume of a solvent was added. Then the mixture was vortexed to obtain a homogeneous suspension or clear solution.
Tumor diameter was measured twice a week with a vernier caliper. The calculation formula of tumor volume was V=0.5a×b^2, wherein a and b represent the long and short diameters of the tumor, respectively.
The anti-tumor efficacy of the compound was evaluated by TGI (%) or relative tumor proliferation rate T/C (%). Relative tumor proliferation rate T/C (%)=TRTV/CRTV×100% (TRTV: RTV of the treatment group; CRTV: RTV of the negative control group). The relative tumor volume (RTV) was calculated according to the results of the tumor measurement. The calculation formula was RTV=Vt/V0, wherein V0 was the average tumor volume measured at the beginning of the grouping and administration (i.e., D0), and Vt was the average tumor volume in a certain measurement. TRTV and CRTV were obtained from the data on the same day.
TGI (%) reflected the tumor growth inhibition rate. […]
At the end of the experiment, the tumor weight would be detected, and the percentage of T/Cweight would be calculated, wherein Tweight and Cweight represent the tumor weight of the administration group and the solvent control group, respectively.
statistical analysis was performed using SPSS software on the basis of RTV data at the end of the experiment. The comparison between three or more groups was analyzed by one-way ANOVA.

[5] = target: TEC (Homo sapiens (Human), UniProt P42680); assay: TEC kinase test (33P-ATP filter binding); conditions: TEC IC50 / BTK IC50 (third figure of the cell)
Method: as §1, §2, §3, §4, §5, §6, §7, §8, §9, §10, §11, §12

[6] = intragastric administration, 2 mg/kg
[7] = intravenous administration, 1 mg/kg

SMILES | The ratio of the activities of EGFR and BTK [1] [fold] | The ratio of the activities of ITK and BTK [2] [fold] | Bioavailability F [3, 6] [%] | Curve area (0-inf) AUC0-inf [3, 6] [µM·h] | Curve area (0-t) AUC0-last [3, 6] [µM·h] | Half-life T1/2 [3, 6] [h] | Time to peak Tmax [3, 6] [h] | Apparent volume of distribution Vdss [3, 7] [L/kg] | Clearance rate Cl [3, 7] [mL/min/kg] | Curve area (0-inf) AUC0-inf [3, 7] [µM·h] | Curve area (0-t) AUC0-last [3, 7] [µM·h] | Half-life T1/2 [3, 7] [h] | Cmax ([3]; read-out: Blood drug concentration Cmax, intragastric administration, 2 mg/kg) [nM] | T/C (relative tumor proliferation rate) [4] [%] | TGI (%) [4] [%] | The ratio of the activities of TEC and BTK [5]
C=CC(=O)N1CCCC(c2nn(-c3ccc(Oc4c(F)cccc4F)cc3)c3cncc(F)c23)C1 (single isomer, unassigned) | 65 | 1690 | 23 | 1.777 | 1.259 | 4.88 | 0.25 | 0.954 | 13.3 | 2.72 | 2.697 | 1.21 | 400 | 7.7 | 102 | 7-fold
C=CC(=O)N1CCCC(c2nn(-c3ccc(Oc4cccc(F)c4F)cc3)c3cncc(F)c23)C1 (single isomer, unassigned) | 383 | 2513 |  |  |  |  |  |  |  |  |  |  |  | 3.6 | 101 | 34-fold
C=CC(=O)N1CCCC(c2nn(-c3ccc(Oc4ccccc4)cc3)c3c(N)nccc23)C1 (single isomer, unassigned) [Compound 7A] | 19 | 57 |  |  |  |  |  |  |  |  |  |  |  |  |  | 4.6-fold
C=CC(=O)N1CCCC(c2nn(-c3ccc(Oc4ccccc4)cc3)c3c(N)nccc23)C1 (single isomer, unassigned) [Compound 7B] | 35 | 1559 |  |  |  |  |  |  |  |  |  |  |  |  |  | 4-fold

Source: patent US11739090B2, “Substituted pyrazlo[3,4-c]pyridines as selective BTK kinase inhibitors” (JUMBO DRUG BANK CO., LTD., priority 2019, dated 2023)
